Measured values as given in PubChem BioAssay (NCI).
The list shows a part of the results, in another mix than the full data.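 Percent growth is the endpoint: 0 to 100 indicates growth inhibition (40 means 60% inhibition), 0 means no net growth, and negative values indicate cell death.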 Calls of active or inactive are those of the source. The calls were made as follows: active = growth percent below 10; inactive = the rest.

What was measured:
Assay in all cases: NCI-60 one-dose screen, 48 h (100 = growth as untreated, 0 = no growth, -100 = all killed)
Conditions in all cases: 10 µM
[1] = tested on: SK-MEL-2 melanoma
[2] = tested on: EKVX NSCLC
[3] = tested on: SN12C renal
[4] = tested on: UO-31 renal
[5] = tested on: TK-10 renal
[6] = tested on: ACHN renal
[7] = tested on: CAKI-1 renal
[8] = tested on: A498 renal
[9] = tested on: HL-60(TB) leukemia
[10] = tested on: CCRF-CEM leukemia
[11] = tested on: MOLT-4 leukemia
[12] = tested on: SR leukemia
[13] = tested on: RPMI-8226 leukemia
[14] = tested on: OVCAR-8 ovarian
[15] = tested on: OVCAR-5 ovarian
[16] = tested on: OVCAR-4 ovarian
[17] = tested on: SK-OV-3 ovarian
[18] = tested on: IGROV1 ovarian
[19] = tested on: OVCAR-3 ovarian
[20] = tested on: HS 578T breast

Compound	growth [1]	growth [2]	growth [3]	growth [4]	growth [5]	growth [6]	growth [7]	growth [8]	growth [9]	growth [10]	growth [11]	growth [12]	growth [13]	growth [14]	growth [15]	growth [16]	growth [17]	growth [18]	growth [19]	growth [20]
Oc1ccc(N(CCCl)CCCl)cc1	inactive: 111%	inactive: 106%	inactive: 62.8%	inactive: 81.6%	inactive: 100%	inactive: 27.7%	inactive: 37.6%	inactive: 114%	inactive: 46.8%	inactive: 57%	inactive: 56.9%	inactive: 30.2%	inactive: 76.6%	inactive: 83%	inactive: 128%	inactive: 102%	inactive: 90.2%	inactive: 97.8%	inactive: 130%	inactive: 123%
N#Cc1ccc(N(CCCl)CCCl)cc1	inactive: 109%	inactive: 58.6%	inactive: 105%	inactive: 74.8%	inactive: 111%	inactive: 102%		inactive: 117%	inactive: 109%	inactive: 96.1%	inactive: 109%	inactive: 95.6%	inactive: 92.1%	inactive: 97.5%	inactive: 88.1%	inactive: 95.9%	inactive: 93%	inactive: 93.8%	inactive: 108%	
CC(C)NP(=O)(F)NC(C)C	inactive: 111%	inactive: 110%	inactive: 104%	inactive: 95.6%	inactive: 102%	inactive: 116%	inactive: 101%	inactive: 102%	inactive: 102%	inactive: 106%	inactive: 93.1%	inactive: 109%	inactive: 113%	inactive: 105%	inactive: 110%	inactive: 108%	inactive: 106%	inactive: 103%	inactive: 106%	inactive: 105%
Fc1cccc(CBr)c1	inactive: 93.6%	inactive: 100%	inactive: 108%	inactive: 81.6%	inactive: 110%	inactive: 109%	inactive: 102%	inactive: 99.8%	inactive: 97.1%		inactive: 95%	inactive: 96.8%	inactive: 112%	inactive: 110%	inactive: 108%	inactive: 111%	inactive: 104%	inactive: 104%	inactive: 104%	inactive: 99.9%
COc1cc(N(CCCl)CCCl)cc(OC)c1OC	inactive: 101%	inactive: 98.3%	inactive: 86.9%	inactive: 87.7%	inactive: 114%	inactive: 93.8%		inactive: 102%	inactive: 98.7%	inactive: 81.2%	inactive: 75.7%	inactive: 72.1%	inactive: 88.1%	inactive: 81.5%	inactive: 116%	inactive: 120%	inactive: 90.1%	inactive: 87.9%	inactive: 88.3%	inactive: 103%
CC(=O)N(c1ccccc1)C1CCNCC1	inactive: 100%	inactive: 96.8%	inactive: 111%	inactive: 91%	inactive: 106%	inactive: 122%	inactive: 101%	inactive: 88.4%	inactive: 109%	inactive: 65.3%	inactive: 94.5%	inactive: 115%	inactive: 103%	inactive: 111%	inactive: 110%		inactive: 118%	inactive: 122%	inactive: 124%	inactive: 93.2%
O=C(O)CCc1ccc(CSCCCl)cc1	inactive: 102%	inactive: 101%	inactive: 94%	inactive: 95.3%	inactive: 99.1%	inactive: 103%	inactive: 94.5%		inactive: 110%	inactive: 109%	inactive: 103%	inactive: 90.4%	inactive: 119%	inactive: 106%	inactive: 106%	inactive: 107%	inactive: 110%	inactive: 101%	inactive: 124%	inactive: 104%
ClCCN(CCCl)Cc1nc2cc(Cl)c(Cl)cc2[nH]1	inactive: 122%	inactive: 84.9%	inactive: 53.6%	inactive: 64.6%	inactive: 100%	inactive: 29.9%	active: 6.62%	inactive: 107%	inactive: 31%	inactive: 48.1%	inactive: 29%	inactive: 16.1%	inactive: 73.8%	inactive: 67.6%	inactive: 126%	inactive: 95.8%	inactive: 91.6%		inactive: 83.5%	inactive: 91.1%
COc1cccc(N(CCCl)CCCl)c1OC	inactive: 99.5%	inactive: 92.8%	inactive: 53.9%	inactive: 89%	inactive: 73.4%	inactive: 22.6%	inactive: 10.1%		inactive: 53.6%	inactive: 49.1%	inactive: 34%	inactive: 31.7%	inactive: 101%	inactive: 78.1%	inactive: 97.7%	inactive: 94%	inactive: 94.3%	inactive: 84.9%	inactive: 103%	inactive: 96.5%
c1ccc(CN2CCC(Nc3ccccc3)CC2)cc1	inactive: 102%	inactive: 91.6%	inactive: 105%	inactive: 89.8%	inactive: 105%	inactive: 98.2%	inactive: 91.1%		inactive: 109%	inactive: 98.6%	inactive: 93.9%	inactive: 86.6%	inactive: 98.1%	inactive: 127%	inactive: 96.5%	inactive: 105%	inactive: 102%	inactive: 102%	inactive: 109%	inactive: 114%
COc1cc(CN(CCCl)CCBr)cc(OC)c1	inactive: 102%	inactive: 91.8%	inactive: 102%	inactive: 86.1%	inactive: 111%	inactive: 101%		inactive: 82.1%	inactive: 87.4%	inactive: 89.5%	inactive: 107%	inactive: 89%	inactive: 97.8%	inactive: 95.8%	inactive: 88.8%	inactive: 101%	inactive: 118%	inactive: 110%	inactive: 111%	
Cc1ccc(N(CCCl)CCCl)cc1	inactive: 131%	inactive: 96.4%	inactive: 46%	inactive: 39.3%	inactive: 90.6%	inactive: 19.1%		inactive: 104%	inactive: 31%	inactive: 40.6%	inactive: 32.2%	inactive: 14.9%	inactive: 89.9%	inactive: 76.5%	inactive: 107%	inactive: 85.8%	inactive: 76.6%	inactive: 82.3%	inactive: 104%	
O=C1CCN(CCc2ccccc2)CC1	inactive: 100%	inactive: 96.7%	inactive: 93.6%	inactive: 86.1%	inactive: 110%	inactive: 102%	inactive: 89.2%	inactive: 83.1%	inactive: 167%	inactive: 108%	inactive: 156%	inactive: 134%	inactive: 92.3%	inactive: 94.4%	inactive: 75.6%	inactive: 116%	inactive: 90.5%	inactive: 82.6%	inactive: 132%	inactive: 43.6%
O=P1(N(CCCl)CCCl)SCCCS1	inactive: 129%	inactive: 105%	inactive: 116%	inactive: 111%	inactive: 105%	inactive: 124%	inactive: 123%	inactive: 77.1%	inactive: 111%	inactive: 99%	inactive: 96%	inactive: 92.9%	inactive: 115%	inactive: 105%	inactive: 115%	inactive: 109%	inactive: 112%		inactive: 118%	inactive: 99%
N#CC1(Nc2ccc(Cl)cc2)CCN(Cc2ccccc2)CC1	inactive: 89.2%	inactive: 76.1%	inactive: 69.5%	inactive: 60.8%	inactive: 73.1%	inactive: 53.1%	inactive: 38.6%		inactive: 63.6%		inactive: 75.7%		inactive: 76.9%	inactive: 75.7%	inactive: 59.5%	inactive: 78%	inactive: 99.6%	inactive: 67.3%	inactive: 88.4%	inactive: 90.1%
Cc1ccc2oc(=O)cc(CN(CCCl)CCCl)c2c1	inactive: 105%	inactive: 112%	inactive: 94.2%	inactive: 73.9%	inactive: 91.3%	inactive: 87%	inactive: 81.2%	inactive: 91%	inactive: 84.5%	inactive: 77.7%	inactive: 69%	inactive: 71.2%	inactive: 96.8%	inactive: 83.4%	inactive: 102%	inactive: 97.5%	inactive: 94.6%	inactive: 72.8%	inactive: 96.2%	inactive: 99.5%
Cc1ccc(CN(CCCl)CCCl)cc1	inactive: 115%	inactive: 105%	inactive: 92.1%	inactive: 83.7%	inactive: 99.8%	inactive: 94.4%			inactive: 78.5%	inactive: 91.5%	inactive: 83%	inactive: 62.7%	inactive: 94.9%	inactive: 96.9%	inactive: 112%	inactive: 101%	inactive: 89.6%	inactive: 70.4%	inactive: 89.7%	
COc1ccc(N)cc1CN(CCCl)CCCl	inactive: 82.5%	inactive: 90.6%	inactive: 63.2%	inactive: 78.3%	inactive: 71.2%	inactive: 41.5%	inactive: 33.8%	inactive: 76.3%	inactive: 30.5%	inactive: 32.4%	inactive: 33.5%	inactive: 34.8%	inactive: 73.3%	inactive: 75.5%	inactive: 108%	inactive: 107%	inactive: 74.1%	inactive: 78.5%	inactive: 80.1%	inactive: 101%
